# Binding of CDR-mutated scFvs to a peptide of the spike HR2 region

Target: peptide PDVDLGDISGINAS, taken from heptad repeat 2 (HR2) of SARS-CoV-2 spike.

Each scFv is VH, three GGGGS repeats, VL, as in the parent Ab-14, and differs from it in the CDRs of the light chain only.
VH: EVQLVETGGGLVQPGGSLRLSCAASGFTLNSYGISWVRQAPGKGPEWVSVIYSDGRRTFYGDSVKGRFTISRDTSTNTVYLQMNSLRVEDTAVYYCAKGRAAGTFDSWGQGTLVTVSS
VL: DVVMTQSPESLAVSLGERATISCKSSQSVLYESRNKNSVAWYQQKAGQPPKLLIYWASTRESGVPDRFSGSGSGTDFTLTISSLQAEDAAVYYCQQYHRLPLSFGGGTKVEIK

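Phage display of a naive human antibody library on the peptide gave the parent. Library AAYL50 holds single substitutions and randomly drawn double and triple substitutions in the CDRs. The assay is AlphaSeq: two haploid yeast populations carry antibody and antigen on their surface. Pairs that bind mate more often; barcode pairs of the diploids are counted by sequencing. The ratio of observed to expected reads was calibrated, replicate by replicate, on BCL2-family standards whose Kd was known from biolayer interferometry. The assay was run in three technical replicates.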

Changes read parent residue, position, new residue, counted from the first residue of the VL shown. Numbers give log10(Kd / nM), so 0 is 1 nM and 3 is 1 µM. Smaller is tighter. A pair that was not seen in that replicate is written "n.d."; this usually means weak binding, but a binder can also be missed.

changes	replicates, log10 nM	signal with controls
Q27C S103F	1.16 1.24 1.36	3 of 9 (4.43)
T59S R99L P101H	n.d. n.d. n.d.	0 of 9
S26V S58F E61Q	n.d. 2.28 n.d.	1 of 9 (2.46)
S33L R34D S103P	0.37 0.72 0.58	3 of 9 (4.19)
L30A V39D H98P	n.d. n.d. n.d.	0 of 9
S28R H98I	3.29 2.64 3.69	0 of 9
Y31L K36T S103K	n.d. n.d. n.d.	0 of 9
S25K P101V S103V	n.d. n.d. 3.35	1 of 9 (4.73)
S26V R99Q L100Q	n.d. n.d. 4.51	3 of 9 (3.64)
R34S K36H V39N	n.d. 3.26 5.59	3 of 9 (3.67)
A57C R60L L100T	n.d. n.d. n.d.	0 of 9
S33D V39I E61S	0.47 0.71 0.59	4 of 9 (5.06)
V29R H98K	2.13 2.47 2.58	2 of 9 (3.85)
N35Y R60F	n.d. n.d. n.d.	1 of 9 (3.03)
K24V R99S	1.02 1.14 1.12	1 of 9 (2.95)
N35T T59S Q95A	n.d. n.d. 4.77	1 of 9 (3.82)
Q27K L30N S58H	1.49 1.56 1.54	0 of 9
E32S E61R Q95S	n.d. n.d. n.d.	1 of 9 (4.22)
A40K Q96W R99G	n.d. n.d. n.d.	2 of 9 (4.67)
W56Q T59L Y97H	2.53 2.42 2.66	4 of 9 (4.34)
E32N W56N	-0.29 0.08 -0.12	4 of 9 (4.49)
S28M N35H T59H	2.31 1.68 2.02	4 of 9 (4.22)
N35S P101M	n.d. n.d. n.d.	0 of 9
V29F Q95R	n.d. n.d. n.d.	1 of 9 (2.56)
S25H T59P E61G	4.73 3.06 n.d.	0 of 9
S26Q L30N E32V	1.07 1.15 1.41	1 of 9 (4.35)
Q27C V39Q E61P	n.d. n.d. 3.78	5 of 9 (4.34)
V29P Y31K	1.43 1.67 1.80	0 of 9
N35A S58C L100G	n.d. n.d. n.d.	2 of 9 (3.69)
S62Y Q95I Q96A	3.48 n.d. n.d.	0 of 9
V29F N37H Y97M	n.d. 5.46 4.16	4 of 9 (4.93)
E32G T59C S103H	2.66 2.56 2.86	8 of 9 (4.45)
V39Y S58K Y97A	4.54 3.83 n.d.	2 of 9 (3.93)
S38G V39S T59K	3.59 4.66 n.d.	5 of 9 (4.40)
Y31F A40C	n.d. 2.92 n.d.	2 of 9 (3.10)
E61F	1.48 1.61 1.48	3 of 9 (3.57)
S26L S33P V39L	2.16 1.45 2.22	1 of 9 (3.09)
K36F R60Q S103P	n.d. n.d. n.d.	1 of 9 (4.01)
K36C P101K S103P	n.d. 3.45 n.d.	4 of 9 (3.92)

The opening 6 entries, copied out:

changes	replicates, log10 nM	signal with controls
Q27C S103F	1.16 1.24 1.36	3 of 9 (4.43)
T59S R99L P101H	n.d. n.d. n.d.	0 of 9
S26V S58F E61Q	n.d. 2.28 n.d.	1 of 9 (2.46)
S33L R34D S103P	0.37 0.72 0.58	3 of 9 (4.19)
L30A V39D H98P	n.d. n.d. n.d.	0 of 9
S28R H98I	3.29 2.64 3.69	0 of 9

Three control strains display no target. For library AAYL50, 18% of the pairings with them gave a signal, with a median of 4.19 and one signal in twenty below 2.99, so weak values seen in few replicates may be background. The control count says in how many pairings with the empty strains this scFv gave a signal, with their mean in brackets. In this assay the parent's reference entry averaged 0.65; its copy inside this library read 1.68.

From the AlphaSeq antibody data of Engelhart et al. 2022 (doi:10.1038/s41597-022-01779-4), copy in the FLAb collection.